Measurements: article PMC4993455 (PLoS ONE, 2016)

Biological target: T1, recombinant human methionine adenosyltransferase α2 (MATα2) (human, UniProt P31153 1-395)
T1 construct: human MATα2, pT7.7-MAT2A including the human MAT2A ORF; also called pT7.7-MAT2A; MATα2 homo-oligomers; source: extracts also named for the pull-down
Assay: pull-down; Glutathione-Sepharose loaded with GST-PDRG1 or truncated forms and washed; incubated 1 hour at 4°C with recombinant MATα2 or MATβ alone (purified, 100 μg; extracts also named in the methods) plus excess GST extract; blots with anti-MATα2 and anti-MATβ
Details: both partners purified

B1: GST-PDRG1 (natural protein)
chain: not shown
notes: 9 amino acid linker between GST and PDRG1; rat PDRG1, full ORF (402 bp) in pGEX-5X-1; also called pGEX-PDRG1; tagged-PDRG1; source: E. coli BL21(DE3) Codon Plus; soluble extract loaded on Glutathione-Sepharose (pull-down); purified on Glutathione-Sepharose 4B, eluted with 20 mM GSH (gel filtration, activity); not shown: GST, N-terminal, kept
Question: Does B1 bind?
Answer: binds
